Like-named read-outs stand apart in the source and are kept apart here.
Test system: houseflies (Musca domestica)

## Cc1ccc(COC(=O)[C@@H]2[C@H](/C=C(\Cl)C(F)(F)F)C2(C)C)o1 (racemic) [present compound (1), 5-methyl-2-furfuryl (1RS,cis)-3-(Z-2-chloro-3,3,3-trifluoroprop-1-enyl)-2,2-dimethylcyclopropanecarboxylate]
Present compound (1) 0.5 µg/female + Piperonyl butoxide 1.0 µg/female, after 24 hours
  Mortality (%): 95%
Present compound (1) 0.5 µg/female, Piperonyl butoxide 0, after 24 hours
  Mortality (%): 30%
